Patent EP1224299B1, “RECOMBINANT PROTEINS AND PEPTIDES FOR ENDOTOXIN BIOSENSORS, ENDOTOXIN REMOVAL, AND ANTI-MICROBIAL AND ANTI-ENDOTOXIN THERAPEUTICS” (priority 1999, dated 2001)
Marks after values point to notes of the source that are not given here.

Assays:
Escherichia coli = conditions: time-kill kinetics tested on Escherichia coli; cited from earlier work
[1] = 50 ml LPS solution of 1 and 0.05 EU/ml; LAL kinetic-QCL detection limit

Question: With Buforin II as the molecule, how does the Killing rate (Escherichia coli) read?
Answer: 30^d min

Question: Which “unbound LPS remaining in the flowthrough” value [1] does the source give for `CC[C@H](C)[C@H](NC(=O)[C@H](CCCCN)NC(=O)[C@@H](NC(=O)[C@H](CCCCN)NC(=O)[C@H](Cc1c[nH]cn1)NC(=O)[C@H](CCC(=O)O)NC(=O)[C@H](C)NC(=O)[C@@H](N)Cc1c[nH]cn1)C(C)C)C(=O)N[C@@H](CCCCN)C(=O)N[C@H](C(=O)N[C@@H](CCCCN)C(=O)N[C@@H](CCC(N)=O)C(=O)N[C@@H](CCCCN)C(=O)N[C@@H](Cc1ccc(O)cc1)C(=O)NCC(=O)N[C@@H](CCC(N)=O)C(=O)N[C@@H](Cc1ccccc1)C(=O)N1CCC[C@H]1C(=O)N[C@@H](CCC(N)=O)C(=O)NCC(=O)N[C@H](C(=O)N[C@@H](CCC(=O)O)C(=O)N[C@H](C(=O)N[C@H](C(=O)N[C@@H](Cc1ccc(O)cc1)C(=O)N[C@H](C(=O)N[C@@H](CS)C(=O)N[C@@H](CO)C(=O)NCC(=O)N[C@@H](CC(N)=O)C(=O)N[C@@H](Cc1ccc(O)cc1)C(=O)N[C@@H](Cc1ccccc1)C(=O)N[C@@H](CC(C)C)C(=O)N[C@@H](CCSC)C(=O)O)[C@@H](C)O)[C@@H](C)O)C(C)C)[C@@H](C)O)C(C)C` [S3Δ] here?
Answer: < 0.005 EU/ml
